{"sequences": {"note": "The chains behind the UniProt entries cited, without tags or fusion partners.", "UniProt P50750, whole entry": "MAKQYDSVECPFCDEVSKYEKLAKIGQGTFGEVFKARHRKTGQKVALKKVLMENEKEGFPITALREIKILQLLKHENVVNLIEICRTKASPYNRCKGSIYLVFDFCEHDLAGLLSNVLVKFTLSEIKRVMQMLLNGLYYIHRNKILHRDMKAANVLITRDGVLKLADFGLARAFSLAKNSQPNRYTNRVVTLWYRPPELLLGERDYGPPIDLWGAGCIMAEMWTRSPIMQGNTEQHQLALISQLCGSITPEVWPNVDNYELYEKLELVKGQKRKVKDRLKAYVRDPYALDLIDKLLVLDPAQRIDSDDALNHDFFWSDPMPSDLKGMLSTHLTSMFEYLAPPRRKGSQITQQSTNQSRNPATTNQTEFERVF"}, "source": "ChEMBL document CHEMBL3856187", "about": "“Cyclin Dependent Kinase 9 Inhibitors for Cancer Therapy” (J Med Chem, 2016)", "biological_target": "Cyclin-dependent kinase 9 (Homo sapiens, UniProt P50750)", "assay": "Inhibition of human GST-tagged CDK9"}
{"compound": "CN1C/C=C/CCOc2cccc(c2)-c2ccnc(n2)Nc2cccc(c2)C1", "note": "[ZOTIRACICLIB]", "values": [{"measurement": "IC50", "value": "3 to 15", "unit": "nM"}]}
